Values quoted from earlier work as cited in patent EP2149374A1 (WORLD-TRADE IMPORT-EXPORT, WTIE, A.G., priority 2007, dated 2008).

Details: after administration; cited from earlier work

In the case of `O=C(O)c1cn(C2CC2)c2cc(N3CCNCC3)c(F)cc2c1=O` [Ciprofloxacin], the “time to maximum haematic concentrations” value is listed as “about one”.
